The text below walks through data of ChEMBL document CHEMBL5247577, “Improved Selective Class I HDAC and Novel Selective HDAC3 Inhibitors: Beyond Hydroxamic Acids and Benzamides” (ACS Med Chem Lett, 2019).

Protein sequences, listed by entry. Tags and fused reporters are not part of them. Lines headed by an entry give the natural chain unless they say otherwise; changes in a name come on top.
UniProt O15379: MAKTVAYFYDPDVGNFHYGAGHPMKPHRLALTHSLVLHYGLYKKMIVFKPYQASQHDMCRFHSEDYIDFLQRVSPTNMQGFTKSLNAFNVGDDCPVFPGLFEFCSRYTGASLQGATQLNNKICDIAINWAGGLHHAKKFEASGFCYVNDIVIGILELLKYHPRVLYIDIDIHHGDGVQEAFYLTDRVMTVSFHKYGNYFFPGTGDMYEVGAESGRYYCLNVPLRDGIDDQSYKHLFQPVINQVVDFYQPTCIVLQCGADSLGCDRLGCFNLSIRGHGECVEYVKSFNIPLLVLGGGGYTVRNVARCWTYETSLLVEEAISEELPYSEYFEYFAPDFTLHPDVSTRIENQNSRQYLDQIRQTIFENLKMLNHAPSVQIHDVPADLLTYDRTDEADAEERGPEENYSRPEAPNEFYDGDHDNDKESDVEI

For this test, the target named is Histone deacetylase 3 (Homo sapiens, UniProt O15379).

One may read the IC50 as the concentration that gives 50% inhibition. Higher therefore signals weaker potency. For the molecule `CNC(=O)CCCCC[C@H](NC(=O)c1cncs1)c1ncc(-c2ccc3ccccc3c2)[nH]1`, the IC50 was 235 nM. Next, `CNC(=O)CCCCC[C@H](NC(=O)c1cncs1)c1ncc(-c2ccc(-n3cccn3)cc2)[nH]1`: 223 nM; `CNC(=O)CCCCC[C@H](NC(=O)c1cncs1)c1ncc(-c2ccc(CN(C)C)cc2)[nH]1`: 162 nM; `CNC(=O)CCCCC[C@H](NC(=O)CCc1c[nH]c2ccccc12)c1ncc(-c2ccc(-n3cccn3)cc2)[nH]1`: 42 nM. Next, `CNC(=O)CCCCC[C@H](NC(=O)CCc1c[nH]c2ccccc12)c1ncc(-c2ccc(CN(C)C)cc2)[nH]1`: 26 nM.
